## Measured affinities in a library of Ab-14 heavy chain variants

Target peptide (SARS-CoV-2 spike, HR2 region): PDVDLGDISGINAS

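Phage display of a naive human antibody library on the peptide gave the parent. AAYL49 was designed without a model: most single CDR substitutions and a random sample of double and triple ones. Affinity was read by AlphaSeq, a pooled yeast mating assay with surface-displayed partners. The frequency of each diploid, read from paired DNA barcodes, reflects how well the two displayed proteins bind. A regression on co-assayed BCL2-family reference pairs converts the normalised counts of each replicate to an apparent Kd. Each pool was mated in three replicate cultures.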

The variants keep the light chain, the linker and the frameworks of Ab-14 (scFv order VH, three GGGGS repeats, VL).
VH: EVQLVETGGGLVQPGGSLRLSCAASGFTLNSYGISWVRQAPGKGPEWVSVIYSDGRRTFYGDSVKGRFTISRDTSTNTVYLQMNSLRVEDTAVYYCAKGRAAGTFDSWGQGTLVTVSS
VL: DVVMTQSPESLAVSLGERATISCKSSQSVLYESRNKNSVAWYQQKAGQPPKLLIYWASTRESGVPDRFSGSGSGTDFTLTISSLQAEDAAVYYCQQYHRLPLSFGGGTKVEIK

Variants are written as CDR1, CDR2 and CDR3 of the heavy chain (limits as in the source). Parent: GFTLNSYGIS, VIYSDGRRTFYGDSVK, GRAAGTFDS.
Affinities are written as log10 Kd with Kd in nM; a lower number is a better binder.
A pair that was not seen in that replicate is written "n.d."; this usually means weak binding, but a binder can also be missed.
Parent in this assay: reference entry 0.65, copy in this library 4.11 (one replicate of three).

| CDR-H1 | CDR-H2 | CDR-H3 | log10 Kd, replicates | signal with controls |
|---|---|---|---|---|
| GHTLNSGGIS | VIYSDGRRGFYGDSVK | GRAAGTFDS | n.d. / n.d. / n.d. | 0 of 9 |
| GFTLNSYGIS | VIYSDGRRTFYGDSVH | GRAIGTFDS | 1.22 / 1.57 / 1.53 | 0 of 9 |
| GLTLNSYGIS | IIYSDGRRTFMGDSVK | GRAAGTFDS | n.d. / n.d. / n.d. | 0 of 9 |
| GFTLNSYGIS | VIYSVGRRTSYGDSVK | GRHAGTFDS | n.d. / n.d. / n.d. | 1 of 9 (3.12) |
| GFTLNSYGIS | VIYSDGRRVFYGIRVK | GRAAGTFDS | n.d. / n.d. / n.d. | 1 of 9 (4.49) |
| MFTLNSYGIL | VIYSDGNRTFYGDSVK | GRAAGTFDS | n.d. / 4.17 / 4.61 | 2 of 9 (4.29) |
| GFTHNSYGIS | VIYSDMRRTFYGDSVK | GRAWGTFDS | n.d. / n.d. / n.d. | 0 of 9 |
| GFTLNSYGIS | VIQSPGRRTDYGDSVK | GRAAGTFDS | n.d. / 4.52 / n.d. | 2 of 9 (3.96) |
| EFTLNSYGIE | VIYSDGRRTFYRDSVK | GRAAGTFDS | n.d. / n.d. / n.d. | 0 of 9 |
| GFTLNSYGIS | VIYSDGRRSFYGDSVK | GRWAGTFDS | 1.37 / 1.28 / 1.37 | 3 of 9 (4.69) |
| GFTLNSYGIS | VIYSDGRPTFVGDSVK | GRAAGTFYS | n.d. / n.d. / n.d. | 0 of 9 |
| GFTLNSIGIS | VIYSDGRRTSYGDSVK | GRAAGTFDW | n.d. / n.d. / n.d. | 2 of 9 (3.60) |
| GFTLNSLGIS | RIESDGRRTFYGDSVK | GRAAGTFDS | n.d. / n.d. / n.d. | 0 of 9 |
| GKTLNSYGIS | VIYSDGRNTFYGDSVK | GRAAGTFDS | n.d. / n.d. / n.d. | 1 of 9 (3.12) |
| GFTLNSYGIS | VIYSDGRRTFYGRIVH | GRAAGTFDS | n.d. / n.d. / n.d. | 0 of 9 |
| EPTLNSYGIS | VIYSDGRRTFYGDWVK | GRAAGTFDS | 3.77 / 4.21 / 4.25 | 3 of 9 (4.13) |
| GFTLNSYGIS | VIYSDGRRTFTGDSVW | GRAAGTFNS | 2.42 / 3.21 / 2.52 | 1 of 9 (2.57) |
| LFTINSYGIS | VICSDGRRTFYGDSVK | GRAAGTFDS | 5.76 / n.d. / n.d. | 2 of 9 (4.02) |
| GFTLNKYGIS | VIYSDGRRTFYGDSVK | PRACGTFDS | n.d. / n.d. / n.d. | 0 of 9 |
| GFTENSYGIS | VIYSDGWRTFYGDSVK | GRAAGTFFS | 4.12 / n.d. / 5.16 | 3 of 9 (4.45) |
| GFTLNSYPIS | VIYSDGRRTFYEDSVK | GDAAGTFDS | n.d. / 3.03 / n.d. | 0 of 9 |
| GFTLNSYNIS | VIYSDGRRTFPGDSVK | GRAAGTFGS | n.d. / n.d. / 3.82 | 1 of 9 (3.33) |
| GFTLNSYGIS | VIYSDGRRTFYGVSVK | GRAYGTRDS | n.d. / 5.00 / n.d. | 1 of 9 (3.53) |
| GFTLNSYGIS | VIYSDGRSEFYGDSCK | GRAAGTFDS | n.d. / 4.97 / n.d. | 2 of 9 (4.27) |
| GFTLNSYGIS | VIYSDGRRTFYGWKVK | GRAAGTNDS | n.d. / n.d. / n.d. | 2 of 9 (2.97) |
| GFTLNSYGID | VIYPDGRRTFYGDSVG | GRAAGTFDS | n.d. / 5.37 / n.d. | 4 of 9 (4.63) |
| GFTLNSYGIN | VIYSDGWRTFYGDSVK | MRAAGTFDS | n.d. / n.d. / n.d. | 0 of 9 |
| PFTLNSYGIS | VIYSDGRRTKYGDSVK | GRAAGTFDH | n.d. / 4.01 / n.d. | 1 of 9 (4.74) |
| GFTLNSYGIS | VIYSDGRRTFYGDSVK | GCAAGTFDS | 1.28 / 2.19 / 2.05 | 0 of 9 |
| GFTLNSYGIS | NIYSDGRRTFYGDSNK | ARAAGTFDS | n.d. / n.d. / n.d. | 1 of 9 (2.84) |
| GFTLNSYGIS | VIGSDGRYTFYGDSVK | GRAAGTCDS | n.d. / n.d. / n.d. | 2 of 9 (2.99) |
| GFTLNSWGIS | VIYSDGRRTFLGDSVK | GRAWGTFDS | 3.20 / n.d. / n.d. | 1 of 9 (2.97) |
| EFTLNSYGIS | VIYSCGRRTWYGDSVK | GRAAGTFDS | 5.90 / 4.02 / n.d. | 2 of 9 (4.35) |
| GFTLNSYGIS | VIYSKGRRTFYGDSVK | MRNAGTFDS | n.d. / n.d. / n.d. | 0 of 9 |
| GFTLNSYGIS | VQYEDGRRTFYGDSVK | GRAAGTFDC | 4.35 / 5.40 / n.d. | 2 of 9 (3.42) |
| GFTLNWYGIS | IIYSDGRRTFYGDSVA | GRAAGTFDS | 3.29 / 3.01 / 3.29 | 2 of 9 (3.91) |
| GFTLNDYGIS | VIYSDGRRWFYGDSVK | GRAAGTFDI | 1.43 / 1.66 / 1.76 | 2 of 9 (4.59) |
| GFDLNSYGIR | VIYSDGRRTFYGDSWK | GRAAGTFDS | n.d. / n.d. / n.d. | 1 of 9 (3.82) |
| GFTLNSYGIS | AIYSDGRRTFYADSVK | GRAACTFDS | n.d. / 4.94 / n.d. | 2 of 9 (3.89) |
| GETLNSYGIS | VIYSDGRRTFYGDSLK | GRAAGTFDE | n.d. / n.d. / n.d. | 1 of 9 (4.21) |
| GFTLNSYGIS | VIYWDCRRTFYGDSVK | GRIAGTFDS | n.d. / n.d. / n.d. | 3 of 9 (4.46) |
| GFTLNSYGIS | VIYSDGRRTFYGASVK | GRAAGTFDS | 1.27 / 1.32 / 1.71 | 0 of 9 |

Background: pairings of library AAYL49 with three empty control strains gave a value in 15% of cases (median 4.06, 5th percentile 2.83). Values in that range, when seen in few replicates, are hard to tell from nonspecific mating. Also given: how often the same scFv was detected with the empty control strains, with their mean in brackets.

Values reported by Engelhart et al. 2022, doi:10.1038/s41597-022-01779-4 (FLAb copy).